Molecular target: Carbonic anhydrase 1 (Homo sapiens, UniProt P00915)

Amino acid sequences for entries named in this document (tags omitted). A change or cut given only in a name is not applied to a line headed by its entry.
UniProt P00915: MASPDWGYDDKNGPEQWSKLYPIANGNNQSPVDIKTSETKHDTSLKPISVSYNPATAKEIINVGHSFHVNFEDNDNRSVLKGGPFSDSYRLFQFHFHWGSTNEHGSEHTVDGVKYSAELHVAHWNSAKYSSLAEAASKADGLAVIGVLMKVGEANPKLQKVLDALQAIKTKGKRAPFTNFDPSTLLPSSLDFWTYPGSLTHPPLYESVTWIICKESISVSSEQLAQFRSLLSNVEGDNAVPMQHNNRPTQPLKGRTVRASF

`[I-].[Na+]` [SODIUM IODIDE] showed a Ki of 300 µM.

— ChEMBL document CHEMBL1687944, “Purification and inhibition studies with anions and sulfonamides of an α-carbonic anhydrase from the Antarctic seal Leptonychotes weddellii” (Bioorg Med Chem, 2011)
